# Measurements reported in publication PMC9127186, “Molecular Basis Underlying Hepatobiliary and Renal Excretion of Phenolic Acids of Salvia miltiorrhiza Roots (Danshen)” (Frontiers in Pharmacology, 2022).
# How the values were obtained:
# rat Oatp1b2 = target: T1, rat Oatp1b2 (Rattus norvegicus, UniProt Q9QZX8); test: Cellular transport assay, HEK-293 cells expressing rat Oatp1b2
# T1 sequence (Q9QZX8 1-687): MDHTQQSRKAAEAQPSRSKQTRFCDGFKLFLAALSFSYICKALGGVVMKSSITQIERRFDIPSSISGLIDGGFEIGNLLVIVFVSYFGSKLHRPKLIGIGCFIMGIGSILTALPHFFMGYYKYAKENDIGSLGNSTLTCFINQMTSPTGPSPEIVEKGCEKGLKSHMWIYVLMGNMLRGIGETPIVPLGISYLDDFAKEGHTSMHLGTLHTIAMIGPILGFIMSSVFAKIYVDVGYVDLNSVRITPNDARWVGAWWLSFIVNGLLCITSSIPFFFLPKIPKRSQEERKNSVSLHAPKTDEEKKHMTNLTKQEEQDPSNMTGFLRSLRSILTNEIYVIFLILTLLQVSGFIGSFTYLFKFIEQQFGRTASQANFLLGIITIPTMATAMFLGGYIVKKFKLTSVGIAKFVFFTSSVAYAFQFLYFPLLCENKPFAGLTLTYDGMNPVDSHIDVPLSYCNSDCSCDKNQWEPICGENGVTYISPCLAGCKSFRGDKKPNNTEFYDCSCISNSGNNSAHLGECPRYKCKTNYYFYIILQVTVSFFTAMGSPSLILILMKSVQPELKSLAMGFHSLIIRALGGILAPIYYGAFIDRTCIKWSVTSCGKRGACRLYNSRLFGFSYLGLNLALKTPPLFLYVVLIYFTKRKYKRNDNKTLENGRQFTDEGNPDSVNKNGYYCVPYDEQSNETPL
# Method: (§1) Briefly, HEK-293 cells were grown, at 37°C and 5% CO2, in Dulbecco’s modified Eagle’s medium, which was fortified with 10% fetal bovine serum, 1% minimal essential medium nonessential amino acids, and 1% antibiotic-antimycotic solution. A day before transfection, cells were seeded onto 24-well poly-D-lysine-coated plates at a density of 2 × 10^5 cells per well. After incubation at 37°C and 5% CO2 for 24 h, the expression plasmid and the empty vector were introduced separately into the HEK293 cells with Lipofectamine 2000 transfection reagent (Invitrogen, Carlsbad, CA, United States), according to the manufacturer’s protocol to yield transporter-expressing cells and mock cells, respectively.
# (§2) Transport studies were performed 48 h after the transfection. […] Differential uptake between the transfected cells and mock cells was defined as net transport ratio (TransportTC/TransportMC ratio), where TransportTC and TransportMC are the transport rates of a test Danshen compound into transfected and mock cells, respectively. […] The determination was performed under linear uptake conditions by incubation for 5 min. Table 1 summarizes the final concentrations of the test Danshen compounds for different transporters. All the incubation samples were analyzed by liquid chromatography/mass spectrometry. […]
# human OAT4 = target: T2, human OAT4 (Homo sapiens, UniProt Q9NSA0); test: Cellular transport assay, HEK-293 cells expressing human OAT4
# T2 sequence (Q9NSA0 1-550): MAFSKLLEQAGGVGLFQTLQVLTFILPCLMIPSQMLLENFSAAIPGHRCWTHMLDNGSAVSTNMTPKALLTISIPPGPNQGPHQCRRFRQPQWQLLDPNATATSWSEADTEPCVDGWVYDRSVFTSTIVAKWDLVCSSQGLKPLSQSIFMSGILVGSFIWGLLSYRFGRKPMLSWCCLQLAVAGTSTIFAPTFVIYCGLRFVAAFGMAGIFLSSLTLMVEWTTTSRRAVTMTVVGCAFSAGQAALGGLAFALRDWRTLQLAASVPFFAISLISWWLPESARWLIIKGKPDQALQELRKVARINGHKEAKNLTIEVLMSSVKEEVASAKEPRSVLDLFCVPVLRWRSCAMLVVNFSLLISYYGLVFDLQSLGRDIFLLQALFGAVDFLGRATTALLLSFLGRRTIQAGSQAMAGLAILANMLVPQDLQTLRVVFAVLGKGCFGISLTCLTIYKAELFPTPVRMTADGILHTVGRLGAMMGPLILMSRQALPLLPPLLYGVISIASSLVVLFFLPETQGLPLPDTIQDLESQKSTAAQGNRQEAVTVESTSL
# Method: as §1, §2
# human OAT3 = target: T3, human OAT3 (Homo sapiens, UniProt Q8TCC7); test: Cellular transport assay, HEK-293 cells expressing human OAT3
# T3 sequence (Q8TCC7 1-542): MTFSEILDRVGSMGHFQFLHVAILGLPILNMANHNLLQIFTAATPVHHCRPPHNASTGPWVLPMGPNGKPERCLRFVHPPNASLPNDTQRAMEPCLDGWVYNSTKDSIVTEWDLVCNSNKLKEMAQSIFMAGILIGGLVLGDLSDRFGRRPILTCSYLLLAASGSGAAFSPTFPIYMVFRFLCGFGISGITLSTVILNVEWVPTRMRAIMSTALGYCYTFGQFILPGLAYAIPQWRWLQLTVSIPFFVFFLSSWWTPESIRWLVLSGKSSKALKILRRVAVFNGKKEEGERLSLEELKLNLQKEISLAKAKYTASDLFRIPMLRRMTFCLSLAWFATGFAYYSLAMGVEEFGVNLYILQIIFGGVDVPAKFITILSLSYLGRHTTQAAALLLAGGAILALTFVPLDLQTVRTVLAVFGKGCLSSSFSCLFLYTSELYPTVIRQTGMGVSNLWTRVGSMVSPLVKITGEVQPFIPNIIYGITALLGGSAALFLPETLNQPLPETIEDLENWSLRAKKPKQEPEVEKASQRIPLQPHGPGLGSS
# Method: as §1, §2
# human OAT2 = target: T4, human OAT2 (Homo sapiens, UniProt Q9Y694); test: Cellular transport assay, HEK-293 cells expressing human OAT2
# T4 sequence (Q9Y694 1-546 isoform Q9Y694-2): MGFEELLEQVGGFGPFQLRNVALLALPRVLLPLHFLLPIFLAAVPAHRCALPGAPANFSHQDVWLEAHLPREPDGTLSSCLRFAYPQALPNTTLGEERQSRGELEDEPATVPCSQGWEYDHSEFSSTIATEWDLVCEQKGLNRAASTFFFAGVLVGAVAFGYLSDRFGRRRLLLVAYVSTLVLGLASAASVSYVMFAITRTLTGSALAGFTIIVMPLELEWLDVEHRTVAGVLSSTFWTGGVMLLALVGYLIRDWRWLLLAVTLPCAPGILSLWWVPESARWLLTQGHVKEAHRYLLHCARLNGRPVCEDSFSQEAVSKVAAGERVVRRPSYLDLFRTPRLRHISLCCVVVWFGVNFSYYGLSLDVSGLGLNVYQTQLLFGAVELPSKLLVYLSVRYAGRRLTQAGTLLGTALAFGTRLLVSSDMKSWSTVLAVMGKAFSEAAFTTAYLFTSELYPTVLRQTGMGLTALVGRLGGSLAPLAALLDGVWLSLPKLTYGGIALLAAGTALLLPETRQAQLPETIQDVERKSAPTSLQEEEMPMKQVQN
# Method: as §1, §2
smiles,measurement,setting,value
"O=C(O)C(O)Cc1ccc(O)c(O)c1 (stereo not drawn) [Tanshinol, tanshinol]",substrate of rat Oatp1b2,rat Oatp1b2,neither protocatechuic acid nor tanshinol was a substrate
same,substrate of human OAT4,human OAT4,relatively weak substrates
same,microsomal CLint,"human OAT4; human, other cell line",0.35 µL/min/mg
same,substrate of human OAT3,human OAT3,relatively weak substrates
same,substrate of human OAT2,human OAT2,substrates
same,microsomal CLint,"human OAT2; human, other cell line",6.09 µL/min/mg
